Measured values reported in US9585929B2 (ZHEJIANG KANGLAITE GROUP CO., LTD., priority 2014, dated 2017).

Tested on: MDA-MB-435 human breast cancer
Assay: MDA-MB-435 human breast cancer model in nude mice
Format: in vivo, BALB/C nude mice
Details: Paclitaxel 50 mg/kg ip × 1
Experimental: The injection of the invention (10 g/100 ml), Paclitaxel injection (30 mg/5 ml) and normal saline
MDA-MB-435 human breast cancer: inoculated in BALB/C nude mice (SPF grade), 18-20 g, female
Tumor blocks of well-grown MDA-MB-435 cancer were homogenized in normal saline to obtain cell suspensions in the concentration of 1-2×10^7 cells/ml. Each nude mouse was inoculated with 0.2 ml of the suspension at the right axilla subcutaneously, and the mice were grouped randomly. The administration began from the 7th day after the inoculation. 18 Days after the inoculation, the mice were sacrificed. Tumor blocks were taken out and weighed. Differences of tumor weight between each experimental group and the control group were compared, and tumor inhibition rates and Q values were calculated.

**Q.** Which “Weight of tumor x ± SD” value does the source give for `CC(=O)O[C@H]1C(=O)[C@@]2(C)[C@H]([C@H](OC(=O)c3ccccc3)[C@]3(O)C[C@H](OC(=O)[C@H](O)[C@@H](NC(=O)c4ccccc4)c4ccccc4)C(C)=C1C3(C)C)[C@]1(OC(C)=O)CO[C@@H]1C[C@@H]2O` [Taxol, paclitaxel] here?
**A.** 1.01 ± 0.33 g
